Laboratory results from patent US8822535B2 (priority 2005, dated 2014).

Test system: mice
Assay: Compound screen, tertiary: survival in lethal hypoxia (4% O2)
Format: in vivo, mouse (C57BL/6)
Settings: 4% O2 after infusion until subcutaneous temperature 33° C.; test ended at 60 minutes; control typically died within 6-15 minutes

cysteamine-5-phosphate sodium salt
survival in lethal hypoxia: 31 min
